Measurements reported in PubChem BioAssay AID707 (Columbia University Molecular Screening Center, 2007).
This is a selection; strong and weak results do not stand in their true shares. Calls of active or inactive are those of the source. Rule as the data show it: active = inhibition above about 80%; inactive = the rest.

Sequences of proteins named here, by UniProt entry; tags and fusion partners are left off.
UniProt P34913, whole entry: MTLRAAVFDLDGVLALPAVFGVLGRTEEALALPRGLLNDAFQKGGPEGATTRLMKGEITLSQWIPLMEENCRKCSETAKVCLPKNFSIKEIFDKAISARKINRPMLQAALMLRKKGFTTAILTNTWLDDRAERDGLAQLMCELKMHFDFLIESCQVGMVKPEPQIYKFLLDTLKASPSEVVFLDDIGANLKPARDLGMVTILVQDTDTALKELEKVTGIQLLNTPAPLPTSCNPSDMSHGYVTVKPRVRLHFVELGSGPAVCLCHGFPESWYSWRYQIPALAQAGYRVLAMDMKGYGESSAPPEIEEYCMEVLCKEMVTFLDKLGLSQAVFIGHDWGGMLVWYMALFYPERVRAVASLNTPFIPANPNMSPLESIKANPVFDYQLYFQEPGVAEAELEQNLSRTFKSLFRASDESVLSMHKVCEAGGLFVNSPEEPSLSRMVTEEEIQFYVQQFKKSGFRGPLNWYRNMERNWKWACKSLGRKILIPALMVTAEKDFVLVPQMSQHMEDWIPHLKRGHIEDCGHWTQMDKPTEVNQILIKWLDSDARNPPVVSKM

What follows are molecules tested against Bifunctional epoxide hydrolase 2 (Homo sapiens) (UniProt P34913) (assay: sEH enzyme activity blockers – biochemical, human sEH, primary screen (AID 707)). Conditions: recombinant human sEH enzymatic activity assay; at 2 µM; hits give high values.

| Structure (SMILES) | inhibition |
| --- | --- |
| CCOP1(=S)c2c(C)nn(CCC#N)c2N=C(c2ccccc2F)N1C (stereo unspecified) | inactive: -1.4% |
